Measured values: US7371773B2, “Breast cancer resistance protein (BCRP) inhibitor” (Kabushiki Kaisha Yakult Honsha, priority 2003, dated 2008)

Tested on: P388/BCRP cell line
Assay: Overcoming anticancer drug resistance in vivo (survival of tumor-implanted mice)
Set-up: species or system CDF1 mice
Conditions: Table 8; compound 100 mg/kg/day + CPT-11 20 mg/kg/day i.p. once a day, 10 administrations

Row | Substance | Survival days Mean ± S.D. [days] | T/C [%]
1 | mono-{4-[(Z)-2-cyano-2-(3,4-dimethoxy-phenyl)-vinyl]-2-methoxy-phenyl} sodium phosphate | 19.0 ± 2.3 | 142
2 | mono-{4-[(Z)-2-cyano-2-(3,4-dimethoxy-phenyl)-vinyl]-phenyl} sodium phosphate | 20.2 ± 0.8 | 151
